## Measured affinities in a library of Ab-14 heavy chain variants

Data: MIT Lincoln Laboratory AlphaSeq set, Li et al. 2023, doi:10.1038/s41467-023-39022-2, as distributed in FLAb.

Binding partner: SARS-CoV-2 spike HR2 peptide, sequence PDVDLGDISGINAS.

Each scFv is VH, three GGGGS repeats, VL, as in the parent Ab-14, and differs from it in the CDRs of the heavy chain only.
VH: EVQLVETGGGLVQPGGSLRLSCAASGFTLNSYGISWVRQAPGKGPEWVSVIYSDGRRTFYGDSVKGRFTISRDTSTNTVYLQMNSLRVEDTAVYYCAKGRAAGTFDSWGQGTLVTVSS
VL: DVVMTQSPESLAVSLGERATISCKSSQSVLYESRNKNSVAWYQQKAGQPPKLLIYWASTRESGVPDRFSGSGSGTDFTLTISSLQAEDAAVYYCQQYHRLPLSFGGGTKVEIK

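The parent was found by panning a naive human phage display library on the peptide. These sequences belong to a second round, designed from the earlier measurements on random variants of the parent. Group labels follow the data file (Ctrl: baseline library sampled from a position-specific scoring matrix, with some repeated check sequences; Rand: our label for a block that the file lists under HC and that is probably the random mutants of the ten best first-round binders; En: ensemble of fine-tuned language models; GP: Gaussian process model; GPLM: also part of the Gaussian process libraries; HC: hill climbing; Gen: genetic algorithm; Gibbs: Gibbs sampling; a sequence that several methods proposed may carry one label only). AlphaSeq pools MATa yeast showing the antibodies with MATalpha yeast showing the peptide. Binding brings cells together so that they mate, and sequencing counts the barcode pairs among the diploids. A regression on co-assayed BCL2-family reference pairs converts the normalised counts of each replicate to an apparent Kd. The assay was run in six technical replicates.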

Each variant is given by its three heavy chain CDRs, as the data file delimits them; those of the parent are GFTLNSYGIS, VIYSDGRRTFYGDSVK, GRAAGTFDS.
Variants here have at most six changes.
Values are apparent Kd, the geometric mean of the replicates that gave a signal; lower means stronger binding.
"no signal" marks a missing value. The strain was present, yet no cells mated with the target were sequenced in any replicate, which points to weak or no binding.
The authors averaged sequences with at least three values out of six and counted those with two or fewer as poor binders.

For GFTLNEYGIS | VIYSDGRRTFYGDSVK | GRAAGTFDV [GPLM_Gen], the assay gave 3.1 nM (6 of 6 replicates). The variant GLTLMSYGIS | VIYSDGRRTSYGDSVK | GRAAGTFDD [Ctrl] showed no signal (0 of 6 replicates). For GFTLNEYGIS | VIYSDGRRTFYGDSVK | GRAADTFDK [GP_HC], the assay gave no signal (0 of 6 replicates). With GFDLNSYGIS | VIYSDGRRTFYGDSVK | GEAAGTFDD [GPLM_Gen] the result was 1.1 nM (6 of 6 replicates). The variant GFNLNEYGIS | VIYADGMRTFYGDSVK | GRAAGTFDH [Ctrl] showed 970 pM (6 of 6 replicates). With GFTLNSYGIS | VIYSDGRRTFYGDSVK | GKAAGTFDS [Ctrl] the result was 86 nM (5 of 6 replicates).

The variant GFTLNDYGIS | VIYSDGRRTFYGDSVK | GVASGTFDS [Ctrl] showed 170 nM (2 of 6 replicates). With GFTLNQYGIS | VIYADGRRTFYGDSVK | GQAAGTFDS [GP_HC] the result was 330 pM (6 of 6 replicates). The variant MFELNSYGIS | VIYSDGRRTFYADSVK | GRTAGTFDK [GP_Gibbs] showed 5.8 nM (5 of 6 replicates). For GFTLNLYGIS | VIYSDGRRTFYGDSVK | GKAAGTFDS [Ctrl], the assay gave no signal (0 of 6 replicates). With GFQLNEYGIS | VIYSDGRRTFYGDSVK | GRHAGTFDS [GPLM_Gibbs] the result was 4.6 nM (6 of 6 replicates). For GFTLNQYGIS | VIYSDGRRTFYGDSVK | GRIAGTFDS [Ctrl], the assay gave 4.4 nM (6 of 6 replicates).

The variant GFDLNSYGIS | VIYSDGMRTFYGDSVK | GRTAGTFWS [GP_Gibbs] showed no signal (0 of 6 replicates). The variant GFTLNSYGIS | VIYSDGRRTSYGDSVR | ISAAGTFPS [Ctrl] showed no signal (0 of 6 replicates). For GFTLNEYGIS | VIYSDGRRTFYTDSVK | GRMAGTFDI [GP_HC], the assay gave 2.0 nM (6 of 6 replicates). The variant GFTLDSYGIS | VPYSDGRRTFYGDSVK | GRAAGTALS [Rand] gave no signal (0 of 6 replicates). The variant GFTLNSYGIS | VIYSDGRRTFYIDSVK | GLAAGTFDS [GP_HC] gave 9.8 nM (1 of 6 replicates). The variant GFDLNSYGIS | VIYSDGRRTFYIDSVK | GRAAGTFDQ [GP_HC] showed 12 nM (6 of 6 replicates).

The variant GETLNSYGIS | VIYSDGRRTFYGDSVK | GEAAGTFDS [Ctrl] gave 100 nM (3 of 6 replicates). With GFDLNEYGIS | VIYADGMRTFYADSVK | GNAAGTFDS [En_HC] the result was 370 pM (6 of 6 replicates). With GFTLNMYGIS | VIYADGRRTFPPDSVK | GRAAGTNKS [Rand] the result was no signal (0 of 6 replicates). With YFDLNSYGIS | VIYSDGRRTFYIDSVK | GKAAGTFDS [GP_Gibbs] the result was 26 nM (4 of 6 replicates). The variant GFKLNSYGIS | VIYSDGRRTFYGDSVK | QRAAGTVDS [Ctrl] gave no signal (0 of 6 replicates). With GRTLNSYGIS | VIYSDGRRTFYGDSVK | GRATGTFDS [Ctrl] the result was no signal (0 of 6 replicates).

The variant GFSLNDYGIS | VIYSDGRRTFYGDSVK | GRHAGTFIS [GPLM_HC] gave no signal (0 of 6 replicates). For GFTVNSYGIS | VIYSDGRRTFYRDSVK | GTAAGTFDS [Ctrl], the assay gave 220 nM (3 of 6 replicates). The variant GFDLNSYGIS | VIYSDGRRTFYGDSEK | GRAAGWFNS [Rand] showed no signal (0 of 6 replicates). The variant GFDLNDYGIS | VIYSDGRRTFYGDSVK | GRIAGTFDS [GP_HC] gave no signal (0 of 6 replicates). The variant KFSLNSYGIS | VIYSDGRRTFYADSVK | GNAAGTFDS [GPLM_Gen] showed 26 nM (6 of 6 replicates). With GFDLNEYGIS | VIYADGRRTSYIDSVK | GEAAGTFDS [En_HC] the result was 1.3 nM (6 of 6 replicates).

For GTTLNSYGIS | VIYSDGRRTFYSDSVK | GRAAGTFDT [Ctrl], the assay gave 44 nM (4 of 6 replicates). With GFTTNDYGIS | VIYSDGRRTKYIDSVK | GRAAGEFDS [Rand] the result was 26 nM (1 of 6 replicates). For GFTLNSYGIS | VIYSDGKRTFYIDSVK | GKAAGTFDV [GP_Gibbs], the assay gave 810 pM (6 of 6 replicates). For GFSLNSYGIS | VIYSDGRRTFYTDRVK | GEAAGTFDS [GP_Gen], the assay gave 10 nM (6 of 6 replicates). The variant GFTLNSYGIS | VIYSDGRRTFYGPSVK | GRADGTRDS [Ctrl] showed 9.8 µM (1 of 6 replicates). The variant GFWLNSYGIS | VIYSDGRRTAYGDSVK | GRTAGTFDS [GPLM_Gibbs] showed 21 nM (5 of 6 replicates).

The variant MFDLNSYGIS | VIYSDGRRTFYGDSVK | GRTAGTFDV [GP_Gen] showed 16 nM (4 of 6 replicates). For GFELNNYGIS | VIYSDGRRTFYGDQVK | GRTAGTFDS [GP_Gibbs], the assay gave 1.6 nM (6 of 6 replicates). With GFDLNSYGIS | VIYSDGRRTFYGDDVK | GRNAGTFDT [GP_Gibbs] the result was 1.0 nM (6 of 6 replicates). With GFTLNSYGIS | VIYSDGRRTFYGDSVK | RMAKGTFDY [Ctrl] the result was no signal (0 of 6 replicates). With GFTLNSYGIS | VIYRDGRRTFYGDSVK | GIAAGTFRS [Ctrl] the result was no signal (0 of 6 replicates). For GFTLEEYGIS | VIYSDGRRTFYQDSVK | GVAAGTFDS [Ctrl], the assay gave 990 pM (6 of 6 replicates).

With GFELNSYGIS | VIYSDGRRTFYSDSVK | GREAGTFDT [GP_Gen] the result was 410 pM (6 of 6 replicates). The variant GFTINSYGIS | VIYSDGRRTMYGDRVK | GRAAGTFEL [Ctrl] gave no signal (0 of 6 replicates).

Again, the first 6 entries without any signal:

GLTLMSYGIS | VIYSDGRRTSYGDSVK | GRAAGTFDD [Ctrl]: no signal (0 of 6 replicates).
GFTLNEYGIS | VIYSDGRRTFYGDSVK | GRAADTFDK [GP_HC]: no signal (0 of 6 replicates).
GFTLNLYGIS | VIYSDGRRTFYGDSVK | GKAAGTFDS [Ctrl]: no signal (0 of 6 replicates).
GFDLNSYGIS | VIYSDGMRTFYGDSVK | GRTAGTFWS [GP_Gibbs]: no signal (0 of 6 replicates).
GFTLNSYGIS | VIYSDGRRTSYGDSVR | ISAAGTFPS [Ctrl]: no signal (0 of 6 replicates).
GFTLDSYGIS | VPYSDGRRTFYGDSVK | GRAAGTALS [Rand]: no signal (0 of 6 replicates).

Three control strains display no target. For all heavy chain designs, 1% of the pairings with them gave a signal, with a median of 120 nM and one signal in twenty below 7.0 nM, so weak values seen in few replicates may be background.
A sequence measured in both rounds can read differently, since the two assays cover different ranges.